Assay results as given in patent publication US20190150137A1.

Biological target: GST-Fg γ^1-17 (GST fusion protein containing the native human Fg γ 395-411 sequence) (human)
Assay: solid-phase assay, immobilised GST fusion, anti-His detection

B1: ClfA229-545 (recombinant His-tagged N2N3 segment of Staphylococcus aureus clumping factor A) (protein)
chain: GTDITNQLTNVTVGIDSGTTVYPHQAGYVKLNYGFSVPNSAVKGDTFKITVPKELNLNGVTSTAKVPPIMAGDQVLANGVIDSDGNVIYTFTDYVNTKDDVKATLTMPAYIDPENVKKTGNVTLATGIGSTTANKTVLVDYEKYGKFYNLSIKGTIDQIDKTNNTYRQTIYVNPSGDNVIAPVLTGNLKPNTDSNALIDQQNTSIKVYKVDNAADLSESYFVNPENFEDVTNSVNITFPNPNQYKVEFNTPDDQITTPYIVVVNGHIDPNSKGDLALRSTLYGYNSNIIWRSMSWDNEVAFNNGSGSGDGIDKPVVP
Kd: 657 nM
